We go through one compound from US9216983B2, “Dihydroorotate dehydrogenase inhibitors with selective anti-malarial activity” (BOARD OF REGENTS, UNIVERSITY OF TEXAS SYSTEM, priority 2007, dated 2015).

The chains behind the UniProt entries cited, without tags or fusion partners.
UniProt A0A509AEH5, entry or part of it: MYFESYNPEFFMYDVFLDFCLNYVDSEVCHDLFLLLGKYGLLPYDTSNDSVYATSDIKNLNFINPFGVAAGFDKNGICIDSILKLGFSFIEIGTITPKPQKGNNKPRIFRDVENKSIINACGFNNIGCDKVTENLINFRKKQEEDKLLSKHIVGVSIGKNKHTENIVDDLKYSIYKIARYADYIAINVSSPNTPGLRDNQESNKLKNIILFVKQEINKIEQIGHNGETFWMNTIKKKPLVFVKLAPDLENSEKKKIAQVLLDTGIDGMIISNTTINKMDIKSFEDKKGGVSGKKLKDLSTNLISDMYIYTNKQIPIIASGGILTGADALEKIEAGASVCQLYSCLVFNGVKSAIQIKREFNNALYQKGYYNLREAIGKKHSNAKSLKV

Structures are written as SMILES.

Usually IC50 stands for the point on the concentration scale where inhibition reaches its midpoint. Low readings indicate inhibition by little substance, high ones a need for much substance.

This assay addresses PbDHODH (Plasmodium berghei, UniProt A0A509AEH5). As to the kind of experiment: DHODH enzyme inhibition assay, PbDHODH. The assay is classed as biochemical, P. berghei. To be noted: Table 4, IC50 class. The protocol: Briefly, the assay solution contained 100 mM HEPES, pH 8.0, 150 mM NaCl, 10% glycerol, 0.1% Triton X-100, 20 micro molar COQD (coenzyme QD), 200 micro molar L-dihydroorotate, and 120 micro molar DCIP. Reactions are initiated by addition of enzyme to a final concentration in the range of about […] to about 50 nM while maintaining the temperature of a circulating water bath at 25° C.
Assay solutions were prepared as discussed above, except that DCIP is not present and the solution is depleted of oxygen by the inclusion of an oxidase/reductase system, such as, 0.1 mg/ml of glucose oxidase, 0.02 mg/ml catalase and 50 mM glucose. The data obtained is fitted to equation 1, to determine the IC50 values of the representative compounds.

The compound `Cc1cc(Nc2cccc(Cl)c2)n2ncnc2n1` [drawing 35] yielded an IC50 of more than 10 µM.
